Measured values published in US20230157998A1, “Methods of Inhibiting SARS-CoV-2 Replication and Treating Corona Virus Disease 2019” (Pfizer Inc., priority 2020, published 2023).

Assay: Assay of CD/co-solvent/water formulations of different compositions over 5 days (F8)
Conditions: pH 5.0, 80 mg/mL SBE-β-CD, 5 mM citrate, target 4 mg/mL PF-00835231
[1] = Ethanol 0.75, PEG400 […] v/v, Polysorbate 80 […]

COc1cccc2[nH]c(C(=O)N[C@@H](CC(C)C)C(=O)N[C@@H](C[C@@H]3CCNC3=O)C(=O)CO)cc12 [PF-00835231]
Assay (Day 1) (DMSO 0.75, PEG400 […] v/v): 4.0 | Assay (Day 5) (DMSO 0.75, PEG400 […] v/v): 3.9 | Assay (Day 1) (DMSO 3.0% v/v): 4.1 | Assay (Day 5) (DMSO 3.0% v/v): 4.3 | Assay (Day 1) (Ethanol 0.75, DMSO […] v/v): 3.9 | Assay (Day 5) (Ethanol 0.75, DMSO […] v/v): 3.9 | Assay (Day 1) (Ethanol 0.75, PEG300 […] v/v): 3.8 | Assay (Day 5) (Ethanol 0.75, PEG300 […] v/v): 3.7 | Assay (Day 1) [1]: 3.6 | Assay (Day 5) [1]: 3.5 | Assay (Day 1) (Ethanol 0.75, PEG400 […] v/v): 3.6 | Assay (Day 5) (Ethanol 0.75, PEG400 […] v/v): 3.6 | Assay (Day 1) (Ethanol 0.75, PG […] v/v): 3.8 | Assay (Day 5) (Ethanol 0.75, PG […] v/v): 3.8 | Assay (Day 1) (PG 3.0% v/v): 3.8 | Assay (Day 5) (PG 3.0% v/v): 3.8
